Ab-14 light chain CDR variants: yeast mating affinities

Values reported by Li et al. 2023, doi:10.1038/s41467-023-39022-2 (FLAb copy).

The target is the same throughout: PDVDLGDISGINAS, from the HR2 region of SARS-CoV-2 spike.

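The parent was found by panning a naive human phage display library on the peptide. These sequences belong to a second round, designed from the earlier measurements on random variants of the parent. Several design methods are mixed in this list. AlphaSeq pools MATa yeast showing the antibodies with MATalpha yeast showing the peptide. The frequency of each diploid, read from paired DNA barcodes, reflects how well the two displayed proteins bind. Read counts were normalised to the haploid input and turned into Kd by a linear fit to BCL2-family pairs of known affinity, for each replicate. There are six technical replicates.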

Ab-14 is the parent antibody, in scFv form: VH, then the linker GGGGSGGGGSGGGGS, then VL. The heavy chain is unchanged in all variants.
VH: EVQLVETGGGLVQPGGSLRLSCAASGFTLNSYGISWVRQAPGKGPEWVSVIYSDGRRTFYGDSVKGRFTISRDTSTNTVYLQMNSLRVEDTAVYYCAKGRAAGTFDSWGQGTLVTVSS
VL: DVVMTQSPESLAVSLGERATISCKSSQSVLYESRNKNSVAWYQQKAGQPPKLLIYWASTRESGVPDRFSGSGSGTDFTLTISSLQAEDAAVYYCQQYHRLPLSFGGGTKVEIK

Changes read parent residue, position, new residue, counted from the first residue of the VL shown. Variants here have at most six changes. Affinities are written as log10 Kd with Kd in nM; a lower number is a better binder. A pair that was not seen in that replicate is written "ND"; this usually means weak binding, but a binder can also be missed.

changes	replicates, log10 nM
K24H Q27P L30S W56N T59Y	1.09 / 0.48 / 0.69 / 0.59 / 0.45 / 0.73
S26Q S38N W56N S62D H98A	-0.10 / 0.02 / -0.02 / -0.54 / -0.04 / 0.02
Y31E R99K	1.76 / 2.28 / 3.49 / 1.63 / 1.48 / 1.36
Q27Y K36G S103K	ND / ND / ND / ND / 2.49 / ND
S25V S26A W56N	-0.03 / 0.14 / -0.11 / -0.10 / 0.17 / 0.11
Q27I V29N R34E W56E T59Q	0.45 / 0.38 / 0.47 / 0.30 / 0.35 / 0.46
V29E K36F W56N	0.29 / -0.08 / -0.22 / -0.49 / -0.21 / -0.03
L30V W56A	0.81 / 0.84 / 0.68 / 0.59 / 0.84 / 0.82
Y31Q K36Q W56E S62V	0.27 / 0.36 / 0.15 / 0.47 / 0.18 / 0.83
S25L K36D W56N E61M	0.14 / 0.26 / 0.19 / 0.14 / 0.20 / 0.66
S25L N37A W56N	-0.22 / -0.31 / -0.38 / -0.42 / -0.38 / -0.19
W56A S58T	0.29 / 1.16 / 0.53 / 0.48 / 0.71 / 0.66
S25L S62P	0.66 / 0.54 / 0.68 / 0.40 / 0.43 / 0.74
S25I L30G V39I W56N T59Q S62Q	0.10 / -0.02 / -0.04 / -0.24 / -0.25 / 0.16
S25F N35T W56N Q96S	0.17 / 0.85 / 0.04 / 0.42 / 0.41 / -0.13
S25V S28L Y31M W56E	-0.50 / -0.71 / -0.73 / -0.50 / -0.19 / -0.40
S38W W56E T59F	1.66 / 1.18 / 1.64 / 1.19 / 1.84 / 1.78
S25C S38N W56E	0.38 / -0.08 / -0.07 / -0.17 / 0.22 / 0.10
L30W R34S N35Q	0.70 / 0.48 / 1.10 / 1.23 / 0.87 / 1.12
S33N W56S Y97A	0.95 / 0.87 / 0.93 / 1.10 / 0.64 / 1.11
W56E E61H L102C	1.27 / 1.75 / 1.09 / 1.33 / 1.74 / 1.58
S25L V29Y S38A W56N T59Q	1.17 / 0.85 / 0.71 / 0.76 / 0.84 / 0.89
S25L S28K Y31S E32N L102E	ND / ND / ND / ND / ND / ND
S25E Y31P S33W W56D	-0.07 / 0.43 / -0.10 / -0.32 / -0.41 / -0.06
Q27V V29Y K36E W56E S62Q	0.33 / -0.01 / 0.13 / -0.01 / 0.03 / 0.62
N35M T59E	2.90 / 1.36 / 1.59 / 1.97 / 2.72 / 2.51
K24H S25L Y31M W56S	-0.03 / -0.05 / -0.12 / -0.10 / 0.00 / 0.24
R34M S62H H98S	ND / 0.96 / ND / ND / 1.45 / 0.42
K24Y S25V V29Q W56N	0.22 / 0.08 / 0.00 / -0.37 / 0.07 / 0.46
Q27I V29Y K36T W56E	0.54 / 0.12 / -0.09 / -0.03 / -0.20 / 0.20
S25L Y31M W56G	0.58 / 0.93 / 0.16 / 0.40 / 0.23 / 0.45
S25L S26P N35Q W56N T59Q	-0.25 / -0.35 / -0.40 / -0.68 / -0.44 / -0.33
W56D E61V	0.74 / 0.78 / 0.77 / 0.81 / 0.79 / 0.81
S25H N35D W56M	ND / 1.35 / 2.56 / 1.97 / 1.53 / 1.46
K24H S25L Q27M S28V W56N	0.17 / 0.02 / 0.11 / -0.08 / 0.18 / 0.14
Y31K W56S	1.42 / 2.09 / 1.88 / 1.55 / 3.15 / 2.06
E32D R34A	1.54 / 0.87 / 1.25 / 1.38 / 1.12 / 0.97
S25F N35A K36S S38R W56N	0.75 / 0.26 / 0.54 / 0.55 / 0.60 / 0.57
Y31P	1.76 / 1.95 / 1.08 / 0.93 / 1.77 / 1.36
Q27W R34N W56H S62P	2.04 / 1.70 / 2.13 / 2.20 / 1.23 / 2.85
S38H Y97H	2.71 / 2.41 / 1.98 / 2.72 / 1.72 / 3.08
S25L V29W S38N W56S T59Q	0.47 / 0.26 / 0.10 / 0.10 / 0.04 / 0.15
S25L S26T V29T E61L	1.14 / 0.52 / 0.82 / 0.33 / 0.55 / 0.62
K24S S26G N37I	ND / ND / ND / ND / ND / ND
Q27V R34Q T59V	ND / ND / ND / 1.13 / ND / 1.18
S25W V29K N35V S62E	1.33 / ND / 2.06 / ND / 1.76 / 3.14
L30V	2.35 / 1.40 / ND / 2.16 / ND / ND
Q27W Y31N R34H W56S S58K S62N	0.52 / 1.02 / 0.77 / 0.52 / 0.72 / 0.86
N37H W56E E61M H98C	1.12 / 0.70 / 0.72 / 0.67 / 1.18 / 0.70
R34S K36G	ND / 1.86 / 0.71 / ND / 2.23 / ND
S25L S26E V29Q L30G W56N T59Q	1.02 / 0.59 / 1.59 / 1.01 / 0.95 / 1.21

6 of these entries, quoted again:

changes	replicates, log10 nM
S25C S38N W56E	0.38 / -0.08 / -0.07 / -0.17 / 0.22 / 0.10
S25L S26P N35Q W56N T59Q	-0.25 / -0.35 / -0.40 / -0.68 / -0.44 / -0.33
S25L Y31M W56G	0.58 / 0.93 / 0.16 / 0.40 / 0.23 / 0.45
K24S S26G N37I	ND / ND / ND / ND / ND / ND
Y31E R99K	1.76 / 2.28 / 3.49 / 1.63 / 1.48 / 1.36
K24H S25L Y31M W56S	-0.03 / -0.05 / -0.12 / -0.10 / 0.00 / 0.24

In the paper, a design with two or fewer of six values counts as a poor binder. Background: pairings of all light chain designs with three empty control strains gave a value in 4% of cases (median 2.64, 5th percentile 1.59). Values in that range, when seen in few replicates, are hard to tell from nonspecific mating. A sequence measured in both rounds can read differently, since the two assays cover different ranges.